Measured values: PubChem BioAssay AID2451 (National Center for Advancing Translational Sciences (NCATS), 2010)
The entries are a selection whose mix differs from that of the whole data set. Some of these compounds have results that are not shown, active ones among them. Inconclusive results are not listed. Activity calls are given as the source filed them. Calls follow the shape of the dose curve; as a rule, active = well fitted inhibition curve with a large enough effect; inconclusive = small, poorly fitted or top-dose-only effect, or effect the other way; inactive = flat fitted curve, though single readings scatter.

By UniProt entry, the sequences of proteins in these tests, tags left out.
UniProt A8B2U2, whole entry: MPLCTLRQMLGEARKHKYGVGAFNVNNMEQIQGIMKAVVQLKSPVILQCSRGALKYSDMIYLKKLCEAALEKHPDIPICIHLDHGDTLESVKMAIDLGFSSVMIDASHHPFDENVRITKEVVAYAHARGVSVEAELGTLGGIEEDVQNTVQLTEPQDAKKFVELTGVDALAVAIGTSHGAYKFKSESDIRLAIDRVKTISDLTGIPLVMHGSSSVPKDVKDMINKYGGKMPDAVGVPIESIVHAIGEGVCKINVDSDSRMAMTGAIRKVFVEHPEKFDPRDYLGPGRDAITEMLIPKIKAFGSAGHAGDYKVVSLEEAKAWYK

These molecules were tested against Fructose-bisphosphate aldolase (Giardia intestinalis (strain ATCC 50803 / WB clone C6)) (UniProt A8B2U2) (assay: qHTS Assay for Inhibitors of Fructose-1,6-bisphosphate Aldolase from Giardia Lamblia). Settings: purified Giardia FBPA; at 59.6 µM (top of the series).
% is scaled to controls: 0 for no effect and ±100 for the full control effect.
Also: nearly all actives have a fitted effect of over 55% in size.

Row | SMILES | activity, negative = inhibition
1 | Cc1ccc(C(=O)NCC2(N3CCCCC3)CCCCC2)cc1 | inactive: 4.98%
2 | CCN(CC)CC(C)C(C)OC(=O)C(O)(c1ccccc1)c1ccccc1 (stereo not drawn) | inactive: -0.867%
3 | COc1cc(SC)ccc1C(=O)NCC1(N(C)C)CCCCC1 | inactive: 1.67%
4 | CC(C)N1C(=O)CC2(CCN(CCOC(=O)C(O)(c3ccccc3)c3ccccc3)CC2)C1=O | inactive: 1.52%
5 | CN1[C@@H]2CC[C@H]1CC(OC(=O)C(O)(c1ccccc1)c1ccccc1)C2 (stereo partly drawn) | inactive: -13.2%
6 | O=C(NCC1(N2CCCCC2)CCCCC1)c1cc([N+](=O)[O-])ccc1Cl | inactive: 1.26%
7 | COc1ccc(C(=O)NCC2(N(C)C)CCCCC2)cc1 | inactive: 0.975%
8 | CCN1CCCC(OC(=O)C2(O)c3ccccc3C=Cc3ccccc32)C1 (stereo not drawn) | inactive: 2.71%
9 | Cc1cc(C(=O)NCC2(N3CCCCC3)CCCCC2)ccc1[N+](=O)[O-] | inactive: 5.76%
10 | O=C(NCC1(N2CCCCC2)CCCCC1)c1cccc(Br)c1 | inactive: 4.48%
11 | O=C(NCC1(N2CCCCC2)CCCCC1)c1cc(F)c(F)cc1Cl | inactive: -6.48%
12 | Cc1ccccc1C(=O)NCC1(N2CCCCC2)CCCCC1 | inactive: 0.757%
13 | CN(C)c1ccc(C(=O)NCC2(N(C)C)CCCCC2)cc1 | inactive: 3.93%
14 | CN(C)C1CCCC1OC(=O)C(O)(c1ccccc1)c1ccccc1 (stereo not drawn) | inactive: -7.3%
15 | O=C(NCC1(N2CCCCC2)CCCCC1)c1cccc(Cl)c1 | inactive: -8.29%
16 | COc1cccc(C(=O)NCC2(N3CCCCC3)CCCCC2)c1 | inactive: 0.201%
17 | COc1ccc(Cl)cc1C(=O)NCC1(N(C)C)CCCCC1 | inactive: 3.05%
18 | COc1cc(C(=O)NCC2(N(C)C)CCCCC2)c([N+](=O)[O-])cc1OC | inactive: -8.86%
19 | CN(C)C1(CNC(=O)c2ccc(Br)cc2)CCCCC1 | inactive: 11.9%
20 | CC(C)Oc1ccc(C(=O)NCC2(N(C)C)CCCCC2)cc1 | inactive: -9.06%
21 | CN(C)c1cccc(C(=O)NCC2(N(C)C)CCCCC2)c1 | inactive: -11.1%
22 | COc1ccc(Br)c(C(=O)NCC2(N3CCCCC3)CCCCC2)c1 | inactive: -2.37%
23 | O=C(OC1CN2CCC1CC2)C(CO)(c1ccccc1)c1ccccc1 (stereo not drawn) | inactive: -7.49%
